Laboratory results taken from PMC4764977, “AZD8797 is an allosteric non-competitive modulator of the human CX3CR1 receptor” (Biochemical Journal, 2016).

Amino acid sequences for entries named in this document (tags omitted).
UniProt P49238, whole entry: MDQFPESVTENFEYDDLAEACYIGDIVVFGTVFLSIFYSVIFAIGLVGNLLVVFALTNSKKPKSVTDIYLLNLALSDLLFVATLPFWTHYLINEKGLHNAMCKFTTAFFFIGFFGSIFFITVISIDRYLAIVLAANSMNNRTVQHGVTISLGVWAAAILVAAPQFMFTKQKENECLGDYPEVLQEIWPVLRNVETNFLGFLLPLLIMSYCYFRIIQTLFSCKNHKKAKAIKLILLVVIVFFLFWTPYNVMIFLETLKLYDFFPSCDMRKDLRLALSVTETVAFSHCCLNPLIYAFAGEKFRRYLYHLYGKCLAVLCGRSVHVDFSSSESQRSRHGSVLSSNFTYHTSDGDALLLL

Target: human CX3CR1 (Homo sapiens, UniProt P49238)
Experiment: Equilibrium saturation binding, CHO-hCX3CR1 membranes
Details: Bmax comparison; tested as the radiolabelled form
Experimental: Cells were washed in PBS and lysed with an Ultra-Turrax Homogenizer in 50 mM Tris/HCl (pH 7.4) and 1 mM EDTA with Complete™ protease inhibitor (Roche). […] Protein concentration was determined using the BCA method (Thermo Fisher Scientific). […] The filter plate was washed in ice-cold 25 mM HEPES (pH 7.4), 5 mM MgCl2, 1 mM CaCl2 and 500 mM NaCl and dried at 50°C for 1 h. Scintillation cocktail, Optiphase Supermix (PerkinElmer) was added to each well and the radioactivity was measured using a MicroBeta Trilux reader (PerkinElmer). […] The DMSO concentration was held constant at 1%. where Kd is the radioligand dissociation constant. Saturation binding isotherms were analysed by non-linear regression and globally fitted to a hyperbolic one-site binding model taking into account both NSB and total binding to calculate the total receptor number (Bmax) and radioligand dissociation constant (Kd): […] NSB=NS·X+Background, where NS is the concentration-dependent NSB. To visualize the manner of binding of CX3CL1 and AZD8797, a diagnostic affinity ratio plot designed to compare strictly competitive behaviour with allosteric interactions was used. […] For single site competitive interactions, the resulting linear plot has the slope of 1.0. […]

For `CC(C)C[C@H](CO)Nc1nc(S[C@@H](C)c2ccccc2)nc2nc(N)sc12` [AZD8797], the “More binding sites than 125I-CX3CL1” value was 14 fold.
